Laboratory results published in patent US20100062067A1, “COMPOSITIONS COMPRISING MACROMOLECULAR ASSEMBLIES OF LIPID AND SURFACTANT” (MALVERN COSMECEUTICS LIMITED, priority 2006, published 2010).

Test: Clarity and turbidity of surfactant/active agent mixtures in water (Comparative Example 2)
Assay type: physicochemical

With Lyso-phosphatidyl choline [S LPC] the “Ability to solubilise TECA” value was “none”.
